Laboratory results taken from article PMC12503259, “Establishment of an in vivo analytical method for detecting total anti-UFH activity and pharmacokinetic study in PS and R15 in rats” (PLOS One, 2025).

Assay: Pharmacokinetic study in Wistar rats, total anti-heparin activity in plasma (fixed UFH added, residual UFH by anti-FXa kit)
Type: in vivo
Protocol: Processing of Plasma Samples: 100 μL of the unknown plasma sample was added to 500 μL of 75% methanol (methanol: water = 75:25, v/v) and vortex-mixed for 5 seconds. The mixture was then centrifuged at 12,000 r/min for 10 minutes at 25°C. The supernatant (500 μL) was collected and dried under nitrogen at 60°C. Subsequently, UFH (0.14 U·mL^-1 for PS and 0.15 U·mL^-1 for R15; 120 μL) was added, and the mixture was vigorously shaken at room temperature for 10 minutes. The residual UFH content was measured using the Heparin Anti-FXa assay kit.
The detailed procedure is as follows: Accurately pipette 40 μL of the sample into a 96-well plate. Place the plate in a microplate shaker. Using a multichannel pipette, add 40 μL of reagent R1 and mix by shaking. Incubate at 37 °C for exactly 3 minutes (start timing upon addition of R1; at 50 seconds, begin shaking with the microplate shaker for 1 minute, then place the plate in the incubator). Remove the 96-well plate from the incubator and place it on the open microplate shaker. Using a multichannel pipette, add 40 μL of reagent R2 to each well and incubate at 37 °C for 6 minutes (after adding R2, at 3 minutes and 50 seconds, open the microplate shaker and shake for 4 minutes, then return the plate to the incubator). Remove the 96-well plate from the incubator and place it on the open microplate shaker. Quickly add 40 μL of reagent R3 using a multichannel pipette and shake until 9 minutes and 10 seconds. At 9 minutes and 30 seconds, add 80 μL of 20% acetic acid to each well to terminate the reaction. Measure the absorbance at 405 nm using a microplate reader (Multiskan FC, Thermo Fisher US).
Eight Wistar rats (approximately 250 g; equally divided by sex and acclimatized for 1 week in the animal facility) were used for profiling pharmacokinetics of PS. Each rat was cannulated in carotid artery to collect blood the day before the experiment. PS was injected through the tail vein and blood samples were collected at 0 min, 1 min, 3 min, 5 min, 7 min, 9 min, 11 min, 15 min, 20 min, 30 min, 60 min and 120 min in a tube containing 4% sodium citrate. Plasma was achieved by centrifugation at 8000 r/min for 10 min, and stored in the refrigerator at −80°C. […]
During the analysis of actual samples, a standard curve and a series of calibration standards were established for each analytical batch to determine the concentration of PS and R15 in plasma. The concentrations were plotted on the X-axis, and the data were fitted using Equation (3).
Weighted least squares regression was used for the calculations. The Optical Density (OD) values of the unknown biological samples were substituted into the equation to determine the concentration of PS and R15, respectively.
Pharmacokinetic parameters of PS were calculated by WinNonlin 6.4, and all data were processed by Microsoft Excel 2013 and GraphPad Prism 8.3.

[1] = R15 300 U/kg iv, rat 9# (male), single animal
[2] = R15 300 U/kg iv, rat 11# (male), single animal
[3] = R15 300 U/kg iv, rat 14# (male), single animal
[4] = R15 300 U/kg iv, rat 15# (male), single animal
[5] = R15 300 U/kg iv, rat 18# (female), single animal
[6] = R15 300 U/kg iv, rat 19# (female), single animal
[7] = R15 300 U/kg iv, rat 20# (female), single animal
[8] = R15 300 U/kg iv, rat 30# (female), single animal
[9] = R15 300 U·kg^-1 single iv tail vein, Wistar rats, Total (male and female), mean ± SD, n = 8
[10] = R15 300 U·kg^-1 single iv tail vein, Wistar rats, female, mean ± SD, n = 4
[11] = R15 300 U·kg^-1 single iv tail vein, Wistar rats, male, mean ± SD, n = 4
[12] = R15 900 U/kg iv, rat 2# (male), single animal
[13] = R15 900 U/kg iv, rat 3# (male), single animal
[14] = R15 900 U/kg iv, rat 4# (male), single animal
[15] = R15 900 U/kg iv, rat 12# (male), single animal
[16] = R15 900 U/kg iv, rat 16# (female), single animal
[17] = R15 900 U/kg iv, rat 23# (female), single animal
[18] = R15 900 U/kg iv, rat 24# (female), single animal
[19] = R15 900 U/kg iv, rat 26# (female), single animal

Compound: N=C(N)NCCC[C@H](NC(=O)[C@H](CCCNC(=N)N)NC(=O)[C@H](CCCNC(=N)N)NC(=O)[C@H](CCCNC(=N)N)NC(=O)[C@H](CCCNC(=N)N)NC(=O)[C@H](CCCNC(=N)N)NC(=O)[C@H](CCCNC(=N)N)NC(=O)[C@H](CCCNC(=N)N)NC(=O)[C@H](CCCNC(=N)N)NC(=O)[C@H](CCCNC(=N)N)NC(=O)[C@H](CCCNC(=N)N)NC(=O)[C@H](CCCNC(=N)N)NC(=O)[C@H](CCCNC(=N)N)NC(=O)[C@H](CCCNC(=N)N)NC(=O)[C@@H](N)CCCNC(=N)N)C(=O)O [R15]
- AUC [1]: 662 min･µg･mL^-1
- CL [1]: 2.45 mL･min^-1･kg^-1
- Cmax [1]: 9.90 µg･mL^-1
- MRT [1]: 1.096 h
- T1/2 [1]: 1.062 h
- Vd [1]: 225 mL･kg^-1
- AUC [2]: 427 min･µg･mL^-1
- CL [2]: 3.44 mL･min^-1･kg^-1
- Cmax [2]: 10.65 µg･mL^-1
- MRT [2]: 0.6837 h
- T1/2 [2]: 0.7762 h
- Vd [2]: 231 mL･kg^-1
- AUC [3]: 423 min･µg･mL^-1
- CL [3]: 3.83 mL･min^-1･kg^-1
- Cmax [3]: 8.02 µg･mL^-1
- MRT [3]: 0.6607 h
- T1/2 [3]: 0.5427 h
- Vd [3]: 180 mL･kg^-1
- AUC [4]: 452 min･µg･mL^-1
- CL [4]: 3.47 mL･min^-1･kg^-1
- Cmax [4]: 7.14 µg･mL^-1
- MRT [4]: 0.6748 h
- T1/2 [4]: 0.6213 h
- Vd [4]: 187 mL･kg^-1
- AUC [5]: 753 min･µg･mL^-1
- CL [5]: 2.16 mL･min^-1･kg^-1
- Cmax [5]: 13.09 µg･mL^-1
- MRT [5]: 1.069 h
- T1/2 [5]: 1.064 h
- Vd [5]: 199 mL･kg^-1
- AUC [6]: 757 min･µg･mL^-1
- CL [6]: 2.17 mL･min^-1･kg^-1
- Cmax [6]: 12.60 µg･mL^-1
- MRT [6]: 1.042 h
- T1/2 [6]: 1.006 h
- Vd [6]: 189 mL･kg^-1
- AUC [7]: 920 min･µg･mL^-1
- CL [7]: 1.79 mL･min^-1･kg^-1
- Cmax [7]: 14.00 µg･mL^-1
- MRT [7]: 1.133 h
- T1/2 [7]: 1.029 h
- Vd [7]: 160 mL･kg^-1
- AUC [8]: 665 min･µg･mL^-1
- CL [8]: 2.56 mL･min^-1･kg^-1
- Cmax [8]: 11.67 µg･mL^-1
- MRT [8]: 0.966 h
- T1/2 [8]: 0.8225 h
- Vd [8]: 182 mL･kg^-1
- Cmax (R15 300 U·kg^-1 single iv tail vein, Wistar rats, Total (male and female), at 1 min, mean ± SD, n = 8): 10.89 ± 2.43 µg/mL
- AUC [9]: 632 ± 182 µg·min/mL
- CL [9]: 2.73 ± 0.75 mL/min/kg
- MRT [9]: 0.9158 ± 0.2067 h
- T1/2 [9]: 0.8655 ± 0.2063 h
- Vd [9]: 194 ± 24 mL/kg
- AUC [10]: 774 ± 106 µg·min/mL
- CL [10]: 2.17 ± 0.31 mL/min/kg
- Cmax [10]: 12.84 ± 0.97 µg/mL
- MRT [10]: 1.053 ± 0.0692 h
- T1/2 [10]: 0.9803 ± 0.108 h
- Vd [10]: 183 ± 17 mL/kg
- AUC [11]: 491 ± 115 µg·min/mL
- CL [11]: 3.30 ± 0.59 mL/min/kg
- Cmax [11]: 8.93 ± 1.63 µg/mL
- MRT [11]: 0.7788 ± 0.2118 h
- T1/2 [11]: 0.7507 ± 0.2293 h
- Vd [11]: 206 ± 26 mL/kg
- plasma concentration (R15 900 U/kg iv, 480 min, rat 3#): 430 ng/mL
- AUC [12]: 1062 min･µg･mL^-1
- CL [12]: 4.28 mL･min^-1･kg^-1
- Cmax [12]: 10.95 µg･mL^-1
- MRT [12]: 1.383 h
- T1/2 [12]: 1.518 h
- Vd [12]: 563 mL･kg^-1
- AUC [13]: 1265 min･µg･mL^-1
- CL [13]: 3.96 mL･min^-1･kg^-1
- Cmax [13]: 10.91 µg･mL^-1
- MRT [13]: 2.2747 h
- T1/2 [13]: 1.9717 h
- Vd [13]: 675 mL･kg^-1
- AUC [14]: 805 min･µg･mL^-1
- CL [14]: 5.99 mL･min^-1･kg^-1
- Cmax [14]: 10.42 µg･mL^-1
- MRT [14]: 1.3 h
- T1/2 [14]: 1.258 h
- Vd [14]: 652 mL･kg^-1
- AUC [15]: 862 min･µg･mL^-1
- CL [15]: 5.55 mL･min^-1･kg^-1
- Cmax [15]: 13.54 µg･mL^-1
- MRT [15]: 1.309 h
- T1/2 [15]: 1.196 h
- Vd [15]: 574 mL･kg^-1
- AUC [16]: 1036 min･µg･mL^-1
- CL [16]: 4.22 mL･min^-1･kg^-1
- Cmax [16]: 11.60 µg･mL^-1
- MRT [16]: 1.398 h
- T1/2 [16]: 1.6788 h
- Vd [16]: 613 mL･kg^-1
- AUC [17]: 1297 min･µg･mL^-1
- CL [17]: 3.74 mL･min^-1･kg^-1
- Cmax [17]: 10.72 µg･mL^-1
- MRT [17]: 1.8908 h
- T1/2 [17]: 1.597 h
- Vd [17]: 518 mL･kg^-1
- AUC [18]: 906 min･µg･mL^-1
- CL [18]: 5.29 mL･min^-1･kg^-1
- Cmax [18]: 13.04 µg･mL^-1
- MRT [18]: 1.295 h
- T1/2 [18]: 1.268 h
- Vd [18]: 581 mL･kg^-1
- AUC [19]: 1011 min･µg･mL^-1
- CL [19]: 4.76 mL･min^-1･kg^-1
- Cmax [19]: 11.10 µg･mL^-1
- MRT [19]: 1.7357 h
- T1/2 [19]: 1.663 h
- Vd [19]: 685 mL･kg^-1
